Source: patent publication US20060025566A1

Chains of the proteins cited; added tags and fusions are not shown.
UniProt Q92847, whole entry: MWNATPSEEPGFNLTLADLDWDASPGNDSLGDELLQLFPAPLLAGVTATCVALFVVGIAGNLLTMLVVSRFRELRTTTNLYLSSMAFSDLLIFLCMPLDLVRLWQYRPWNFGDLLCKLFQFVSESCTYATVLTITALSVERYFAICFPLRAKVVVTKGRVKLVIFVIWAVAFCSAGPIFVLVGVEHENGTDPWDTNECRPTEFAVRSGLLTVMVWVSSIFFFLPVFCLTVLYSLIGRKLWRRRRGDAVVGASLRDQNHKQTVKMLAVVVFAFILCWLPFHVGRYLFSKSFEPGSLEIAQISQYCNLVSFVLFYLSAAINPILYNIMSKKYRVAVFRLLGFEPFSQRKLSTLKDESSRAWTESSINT
UniProt O43193, whole entry: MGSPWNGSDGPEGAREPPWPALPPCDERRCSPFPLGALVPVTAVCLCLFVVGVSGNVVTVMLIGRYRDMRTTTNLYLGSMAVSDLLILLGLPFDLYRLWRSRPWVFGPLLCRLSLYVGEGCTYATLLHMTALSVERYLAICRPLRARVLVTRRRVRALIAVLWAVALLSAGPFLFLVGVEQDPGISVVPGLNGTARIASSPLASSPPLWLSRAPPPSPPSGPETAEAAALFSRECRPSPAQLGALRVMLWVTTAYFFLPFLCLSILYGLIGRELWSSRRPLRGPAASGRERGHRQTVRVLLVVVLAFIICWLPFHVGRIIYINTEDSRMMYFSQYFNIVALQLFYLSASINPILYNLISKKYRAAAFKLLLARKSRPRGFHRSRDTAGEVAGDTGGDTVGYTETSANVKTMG

Tests used:
[1] = biological target: human growth hormone secretagogue receptor (hGHS-R1a) (Homo sapiens, UniProt Q92847); assay: Competitive radioligand binding assay (ghrelin receptor), [125I]-ghrelin displacement on GHS-R/HEK 293 membranes; conditions: for binding potency of linear (not cyclized) analogues: linear analogues of compounds 10 and 133
[2] = biological target: human ghrelin receptor (hGHS-R1a) (Homo sapiens, UniProt Q92847); type: cell-based; conditions: functional (agonist) activity, standard method; TFA salts unless otherwise noted
[3] = tested on: gastric emptying in fasted rats; assay: Gastric emptying in fasted rats (phenol red methylcellulose meal); type: in vivo, rat
[4] = tested on: rats with post-operative ileus (POI); type: in vivo, rat
[5] = tested on: growth hormone (GH) release; assay: Growth hormone response to test compounds in conscious, freely-moving rats (plasma GH by RIA)
[6] = tested on: morphine-treated rats; assay: Model of opioid-delayed gastric emptying and gastrointestinal transit (morphine) in rats; conditions: morphine 3 mg/kg s.c., test compound 300 or 1000 μg/kg i.v., FIG. 16B
[7] = Metabolic stability in human plasma (37° C.); type: in vitro ADME; conditions: free amine or salt, with or without PBS buffering
[8] = tested on: cyp450 enzymes; conditions: 0.0457 to 100 μM
[9] = biological target: motilin receptor (Homo sapiens, UniProt O43193); assay: Selectivity for the ghrelin receptor versus the motilin receptor; type: binding
[10] = binding activity at the human ghrelin receptor, [125I]-ghrelin displacement
[11] = binding activity at the human ghrelin receptor, [125I]-ghrelin competition, GHS-R/HEK 293 membranes
[12] = read-out: Binding Activity at the Human Ghrelin Receptor, [125I]-ghrelin competition, GHS-R/HEK 293 membranes, Table 3A
[13] = binding activity, standard method, TFA salts unless otherwise noted

CCC(C)[C@@H]1NCCCc2ccccc2/C=C/CNC(=O)[C@@H](Cc2ccc(F)cc2)NC(=O)[C@@H](C)N(C)C1=O (some centres unmarked)
Ki [1, 10]: 10 to 100 nM

CCC[C@@H](C(=O)N(C)CC(=O)N[C@H](Cc1ccccc1)C(N)=O)N(CCOc1ccccc1CCCN)C(C)=O
Ki [1, 11]: > 10000 nM | binding potency of linear (not cyclized) analogues [1]: lack of binding potency

CCC(C)C1NCCOc2ccccc2/C=C/CNC(=O)C(Cc2cc(F)cc(F)c2)NC(=O)C2(CCCC2)NC1=O (centres unmarked)
Ki [1, 10]: 100 to 1000 nM

CC1CN[C@@H](C2CC2)C(=O)N(C)[C@H](C)C(=O)N[C@H](Cc2ccc(F)cc2)C(=O)NCCCc2ccccc2O1 (some centres unmarked)
EC50 [2]: 1 to 100 nM

C[C@@H]1CN[C@@H](C2CC2)C(=O)N(C)[C@H](C)C(=O)N[C@H](Cc2ccc(F)cc2)C(=O)NCCCc2ccccc2O1
gastric emptying of a solid meal in naïve rat ([3]; i.v. immediately after meal, FIG. 14): significant gastric emptying in a dose-dependent manner | potency on gastric emptying superior to metoclopramide ([3]; naïve rats, i.v., FIG. 14B): 100 fold | effect on postoperative ileus in comparison to POI+vehicle treated rats ([4]; 100 μg/kg i.v., n=5, FIG. 8): significantly improves postoperative ileus | gastric emptying and intestinal transit in POI rats ([4]; 100 and 300 μg/kg (i.v.)): significantly increased gastric emptying and intestinal transit | IGF-1 levels ([5]; 1000 μg/kg dose): No changes in IGF-1 levels | effect on GH release ([5]; FIG. 9): lack of effect on GH release | effect on ghrelin-induced GH release ([5]; dosed 10 min. prior to ghrelin): neither inhibits nor augments ghrelin-induced GH release | pulsatile GH release in comparison to vehicle controls ([5]; i.v., doses up to 1000 μg/kg): no significant difference in pulsatile GH release | opioid-delayed gastrointestinal transit [6]: effectively reversed in a dose-dependent manner | stable in human plasma at 37° C. for [7]: at least 24 hours | inhibitory activity at cyp450 enzymes tested, except cyp3A4 [8]: minimal inhibitory activity

CC(C)C[C@@H]1NCCOc2ccccc2/C=C/CNC(=O)[C@H](Cc2ccncc2)NC(=O)C2(CCCC2)NC1=O
Ki [1, 12]: 1000 to 10000 nM

CCC(C)[C@@H]1NCCOc2ccccc2/C=C/CNC(=O)[C@H](Cc2ccc(F)c(F)c2)NC(=O)C2(CCCC2)NC1=O (some centres unmarked)
Ki [1, 10]: 10 to 100 nM

CCC[C@@H]1NCCOc2ccccc2CCCNC(=O)[C@@H](Cc2ccccc2)NC(=O)[C@H](C)N(C)C1=O
Ki [1, 11]: 100 to 1000 nM

C[C@@H]1C(=O)N[C@H](Cc2ccc(F)cc2)C(=O)NCCCc2ccc(F)cc2OCCN[C@@H](C2CC2)C(=O)N1C
Selectivity [9]: 2500/1

CC[C@H](C)[C@@H]1NC[C@H](C)Oc2ccccc2CCCNC(=O)[C@H](Cc2cccc(Cl)c2)NC(=O)C2(CCCC2)NC1=O
Ki [1, 10]: 100 to 1000 nM | Selectivity [9]: 300/1

CCC(C)[C@@H]1NC[C@@H](C)Oc2ccccc2CCCNC(=O)[C@H](Cc2cccc(Cl)c2)NC(=O)C2(CCCC2)NC1=O (some centres unmarked)
Ki [1, 13]: 0.1 to 10 nM | EC50 [2]: > 1000 nM

CC(=O)N(CCOc1ccccc1CCCN)[C@@H](CC(C)C)C(=O)NC1(C(=O)N[C@@H](Cc2ccccc2)C(N)=O)CCCC1
Ki [1, 11]: > 10000 nM | binding potency of linear (not cyclized) analogues [1]: lack of binding potency

CC(C)[C@@H]1NCCOc2ccccc2/C=C/CNC(=O)[C@H](Cc2ccccc2)NC(=O)[C@@H](C)N(C)C1=O
Ki [1, 11]: 0.1 to 10 nM

CC(C)[C@@H]1NCCOc2ccccc2/C=C\CNC(=O)[C@H](Cc2ccccc2)NC(=O)C2(CCOC2)NC1=O (single isomer, unassigned)
Ki [1, 11]: 100 to 1000 nM | Ki [1, 13]: 100 to 1000 nM

CCC(C)C1NCCOc2ccccc2/C=C/CNC(=O)C(COCc2ccccc2)NC(=O)C(C)N(C)C1=O (centres unmarked)
Ki [1, 10]: 100 to 1000 nM

CCC(C)C1NCCOc2ccccc2/C=C/CNC(=O)C(Cc2ccc(F)c(F)c2)NC(=O)C2(CCCC2)NC1=O (centres unmarked)
Ki [1, 10]: 100 to 1000 nM

CC(C)C[C@@H]1NCCOc2ccccc2CCCNC(=O)CNC(=O)C2(CCCC2)NC1=O
Ki [1, 11]: > 10000 nM

CC[C@H](C)[C@@H]1NCCCc2ccccc2/C=C/CNC(=O)[C@H](Cc2cccc(Cl)c2)NC(=O)C2(CCCC2)NC1=O
Ki [1, 10]: 10 to 100 nM | Ki [1, 13]: 10 to 100 nM | EC50 [2]: 1 to 100 nM

CC(C)[C@@H]1NCCOc2ccccc2/C=C/CNC(=O)[C@H](Cc2ccccc2)NC(=O)C2(CCOC2)NC1=O (some centres unmarked)
Ki [1, 10]: 10 to 100 nM

CCC(C)[C@@H]1NC[C@@H](C)Oc2ccccc2CCCNC(=O)[C@@H](Cc2ccccc2)NC(=O)[C@@H](C)N(C)C1=O (some centres unmarked)
Ki [1, 11]: 10 to 100 nM | Ki [1, 13]: 10 to 100 nM | EC50 [2]: 1 to 100 nM

CCC(C)[C@@H]1NCCOc2ccccc2/C=C/CNC(=O)[C@H](Cc2ccc(Cl)c(Cl)c2)NC(=O)C2(CCCC2)NC1=O (some centres unmarked)
Ki [1, 10]: 0.1 to 10 nM

CC[C@H](C)[C@@H]1NCCOc2ccccc2/C=C/CNC(=O)[C@H](Cc2cc(F)cc(F)c2)NC(=O)C2(CCCC2)NC1=O
Ki [1, 10]: 10 to 100 nM

CC[C@@H](C)[C@@H]1NCCOc2ccccc2/C=C/CNC(=O)[C@H](Cc2ccccc2)NC(=O)C2(CCCC2)NC1=O
Ki [1, 12]: 10 to 100 nM

CC[C@H](C)[C@@H]1NCCOc2ccccc2/C=C/CNC(=O)[C@@H](COCc2ccccc2)NC(=O)[C@@H](C)N(C)C1=O
Ki [1, 10]: 100 to 1000 nM

CC(C)C[C@@H]1NCC/C=C/CCNC(=O)[C@H](Cc2ccccc2)NC(=O)C2(CCCC2)NC1=O
Ki [1, 11]: > 10000 nM

CC(C)CC1NCCOc2ccccc2/C=C/CNC(=O)C(Cc2cccnc2)NC(=O)C2(CCCC2)NC1=O (centres unmarked)
Ki [1, 12]: > 1000 nM

CCC(C)C1NCCOc2ccccc2/C=C/CNC(=O)C(Cc2cccc(Cl)c2)NC(=O)C2(CCCC2)NC1=O (centres unmarked)
Ki [1, 10]: 10 to 100 nM

CC(C)CC1NCCOc2ccccc2/C=C/CNC(=O)C(Cc2ccncc2)NC(=O)C2(CCCC2)NC1=O (centres unmarked)
Ki [1, 12]: > 10000 nM

CCC(C)C1NCCOc2ccccc2/C=C/CNC(=O)C(Cc2ccccc2)NC(=O)C2(CCCC2)NC1=O (centres unmarked)
Ki [1, 12]: 10 to 100 nM

O=C1NC/C=C/c2ccccc2OCCNC2(CCCCC2)C(=O)NC2(CCCC2)C(=O)N[C@H]1Cc1ccccc1
Ki [1, 12]: 10 to 100 nM

CCC(C)[C@@H]1NCCCc2ccccc2C=CCNC(=O)[C@@H](Cc2ccccc2)NC(=O)[C@@H](C)N(C)C1=O (some centres unmarked)
Ki [1, 11]: 10 to 100 nM | Ki [1, 13]: 10 to 100 nM | EC50 [2]: 1 to 100 nM | Selectivity [9]: >800/1

CCC(C)C1NCCOc2ccccc2/C=C/CNC(=O)C(Cc2cccc(C(F)(F)F)c2)NC(=O)C2(CCCC2)NC1=O (centres unmarked)
Ki [1, 10]: 100 to 1000 nM

CC[C@H](C)[C@@H]1NCC(C)Oc2ccccc2CCCNC(=O)[C@@H](Cc2ccccc2)NC(=O)[C@@H](C)N(C)C1=O (some centres unmarked)
Ki [1, 11]: 10 to 100 nM | Ki [1, 13]: 10 to 100 nM | EC50 [2]: 100 to 1000 nM

CC[C@H](C)[C@@H]1NCCCCC=CCCNC(=O)[C@H](Cc2cccc(Cl)c2)NC(=O)C2(CCCC2)NC1=O
Ki [1, 10]: 100 to 1000 nM

CC(C)C[C@@H]1NCCOc2ccccc2/C=C/CNC(=O)[C@H](Cc2cccnc2)NC(=O)C2(CCCC2)NC1=O
Ki [1, 12]: > 1000 nM

Where two headings read alike, the source gives them in different places.
